Sequences of proteins named here, by UniProt entry; tags and fusion partners are left off.
UniProt P22455, whole entry, looked up: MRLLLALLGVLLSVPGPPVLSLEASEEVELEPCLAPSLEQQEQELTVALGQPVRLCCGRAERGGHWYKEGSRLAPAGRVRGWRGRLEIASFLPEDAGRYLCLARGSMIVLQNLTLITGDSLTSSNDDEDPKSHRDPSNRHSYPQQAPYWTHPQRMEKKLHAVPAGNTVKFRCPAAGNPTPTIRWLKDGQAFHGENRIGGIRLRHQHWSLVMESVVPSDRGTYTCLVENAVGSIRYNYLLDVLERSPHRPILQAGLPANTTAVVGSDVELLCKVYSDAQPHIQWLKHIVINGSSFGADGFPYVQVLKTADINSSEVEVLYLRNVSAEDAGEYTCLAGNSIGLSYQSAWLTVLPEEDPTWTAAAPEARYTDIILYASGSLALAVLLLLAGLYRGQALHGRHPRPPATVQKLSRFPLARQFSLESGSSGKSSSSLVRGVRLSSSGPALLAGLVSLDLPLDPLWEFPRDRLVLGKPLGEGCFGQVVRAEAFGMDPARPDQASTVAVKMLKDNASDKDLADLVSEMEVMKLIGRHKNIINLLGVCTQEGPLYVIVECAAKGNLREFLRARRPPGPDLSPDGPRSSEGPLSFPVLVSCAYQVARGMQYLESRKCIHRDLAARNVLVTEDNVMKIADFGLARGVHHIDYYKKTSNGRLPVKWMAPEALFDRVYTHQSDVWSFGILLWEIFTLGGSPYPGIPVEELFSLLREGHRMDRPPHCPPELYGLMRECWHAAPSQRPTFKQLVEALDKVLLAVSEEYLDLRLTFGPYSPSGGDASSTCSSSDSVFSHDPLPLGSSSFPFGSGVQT

According to ChEMBL document CHEMBL5543146 (J Med Chem, 2024):

Target: Fibroblast growth factor receptor 4 (Homo sapiens, UniProt P22455)

Kinact: 1.7 10^-3/s
SMILES: COc1cc(OC)cc(-c2ccc3nc(Nc4nc(Cl)ccc4[N+](=O)[O-])ncc3c2)c1
